We go through 1 compound from PubChem BioAssay AID743059 (The Scripps Research Institute Molecular Screening Center, 2013).

Activity calls are given as the source filed them.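 How the source made its calls: active means EC50 at or below 10 µM; inactive means EC50 above 10 µM.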 Some results are limits rather than exact numbers.

In the assay the target is Nuclear hormone receptor DAF-12 (Heterodera glycines). In words: H. glycines DAF-12 receptor agonist potency, dose response, cell-based, luminescence, HEK293 (AID 743059). The conditions noted are these: HEK293 hgDAF-12 reporter, luciferase luminescence.

Consider `O=P1(N(CCCl)CCCl)Nc2ccccc2N1`, for which the EC50 is inactive: > 67.5 µM.

What is called EC50 is the concentration needed to bring the measured effect to its halfway point.
